Source: US10077273B2, “SHMT inhibitors” (The Trustees of Princeton University, priority 2016, dated 2018)

Experiment: Liver microsome assay (metabolic stability)
Format: in vitro ADME
Conditions: pooled male mouse liver microsomes, 2 μM
Description: Male CD-1 mouse liver microsomes were obtained from commercial sources (Corning #452701). The following master solution was prepared before compound addition:
Two separate experiments were performed as follows: a) With Cofactors (NADPH and UDPGA): 40 μL of 10 mM NADPH and 40 μL of 20 mM UDPGA were added to the incubations. The final concentrations of microsomes, NADPH and UDPGA were 0.5 mg/mL, 1 mM and 2 mM, respectively. b) Without Cofactors (NADPH and UDPGA): 10 μL of 20 mg/mL liver microsomes and 80 μL of ultra-pure water were added to the incubations. The final concentration of microsomes was 0.5 mg/mL. The mixture was pre-warmed at 37° C. for 5 minutes.
The reaction was started with the addition of 4 μL of 200 μM control compound or test compound solution. Verapamil was used as positive control in this study. The final concentration of test compound or control compound was 2 μM. The incubation solution was incubated in water bath at 37° C. Aliquots of 50 μL were taken from the reaction solution at 0.5, 5, 15, 30, 45 and 60 minutes. The reaction was stopped by the addition of 5 volumes of cold acetonitrile with IS (100 nM alprazolam, 200 nM caffeine and 100 nM tolbutamide). Samples were centrifuged at 3,220 g for 40 minutes. […] The in vitro half-life (in vitro t1/2) was determined from the slope value of the LC-MS signal of the test compound.

For `Cc1n[nH]c2c1C(c1cc(CO)cc(-c3cccc(CC(N)=O)c3)c1)(C(C)C)C(C#N)=C(N)O2` (centres unmarked) [HK-X3], the “CLint (replicate 1)” value (replicate 1) was 91.87 μL/min/mg protein and the “CLint (replicate 2)” value (replicate 2) was 94.28 μL/min/mg protein.
